Measured values taken from US7169786B2, “Isoxazoline derivatives as anti-depressants” (priority 2001, dated 2007).
Read-outs that look alike come from different tables or passages of the source.

The chains behind the UniProt entries cited, without tags or fusion partners.
UniProt P08913, whole entry: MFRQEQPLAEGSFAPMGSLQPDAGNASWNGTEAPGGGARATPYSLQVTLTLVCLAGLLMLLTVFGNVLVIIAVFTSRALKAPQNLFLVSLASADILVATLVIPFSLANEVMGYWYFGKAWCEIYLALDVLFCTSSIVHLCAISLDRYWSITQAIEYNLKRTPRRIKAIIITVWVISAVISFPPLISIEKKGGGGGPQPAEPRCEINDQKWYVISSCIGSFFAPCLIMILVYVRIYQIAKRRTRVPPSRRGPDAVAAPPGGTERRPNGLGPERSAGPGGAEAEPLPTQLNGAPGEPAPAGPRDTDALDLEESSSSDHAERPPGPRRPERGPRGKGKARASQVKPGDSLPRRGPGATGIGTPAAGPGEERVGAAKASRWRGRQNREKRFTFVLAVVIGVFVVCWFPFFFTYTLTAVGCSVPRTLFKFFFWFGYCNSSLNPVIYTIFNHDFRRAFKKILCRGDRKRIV
UniProt P18825, whole entry: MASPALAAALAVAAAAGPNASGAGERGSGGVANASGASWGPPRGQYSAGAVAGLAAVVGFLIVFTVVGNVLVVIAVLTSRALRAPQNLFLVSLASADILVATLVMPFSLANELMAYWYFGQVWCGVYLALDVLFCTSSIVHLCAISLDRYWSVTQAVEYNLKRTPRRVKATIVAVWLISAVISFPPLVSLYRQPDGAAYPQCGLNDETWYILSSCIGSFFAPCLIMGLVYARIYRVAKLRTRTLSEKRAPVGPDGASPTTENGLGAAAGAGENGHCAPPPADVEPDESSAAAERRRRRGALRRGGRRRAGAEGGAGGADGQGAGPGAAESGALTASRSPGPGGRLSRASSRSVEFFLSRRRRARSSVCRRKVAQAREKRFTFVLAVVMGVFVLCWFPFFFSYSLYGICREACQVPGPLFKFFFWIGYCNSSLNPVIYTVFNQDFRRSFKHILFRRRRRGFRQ
UniProt P18089, whole entry: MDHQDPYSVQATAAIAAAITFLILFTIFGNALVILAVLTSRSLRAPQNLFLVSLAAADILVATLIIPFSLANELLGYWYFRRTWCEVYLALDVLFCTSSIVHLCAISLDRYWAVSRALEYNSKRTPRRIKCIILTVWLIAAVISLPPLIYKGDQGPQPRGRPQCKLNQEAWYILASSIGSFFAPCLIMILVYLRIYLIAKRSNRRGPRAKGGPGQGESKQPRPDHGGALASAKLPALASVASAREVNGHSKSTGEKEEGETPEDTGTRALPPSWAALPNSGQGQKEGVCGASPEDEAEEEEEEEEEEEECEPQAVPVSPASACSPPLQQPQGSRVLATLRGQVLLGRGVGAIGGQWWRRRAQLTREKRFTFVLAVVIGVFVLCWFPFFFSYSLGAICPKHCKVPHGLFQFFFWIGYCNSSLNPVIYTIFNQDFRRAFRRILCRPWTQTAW
UniProt P31645, whole entry: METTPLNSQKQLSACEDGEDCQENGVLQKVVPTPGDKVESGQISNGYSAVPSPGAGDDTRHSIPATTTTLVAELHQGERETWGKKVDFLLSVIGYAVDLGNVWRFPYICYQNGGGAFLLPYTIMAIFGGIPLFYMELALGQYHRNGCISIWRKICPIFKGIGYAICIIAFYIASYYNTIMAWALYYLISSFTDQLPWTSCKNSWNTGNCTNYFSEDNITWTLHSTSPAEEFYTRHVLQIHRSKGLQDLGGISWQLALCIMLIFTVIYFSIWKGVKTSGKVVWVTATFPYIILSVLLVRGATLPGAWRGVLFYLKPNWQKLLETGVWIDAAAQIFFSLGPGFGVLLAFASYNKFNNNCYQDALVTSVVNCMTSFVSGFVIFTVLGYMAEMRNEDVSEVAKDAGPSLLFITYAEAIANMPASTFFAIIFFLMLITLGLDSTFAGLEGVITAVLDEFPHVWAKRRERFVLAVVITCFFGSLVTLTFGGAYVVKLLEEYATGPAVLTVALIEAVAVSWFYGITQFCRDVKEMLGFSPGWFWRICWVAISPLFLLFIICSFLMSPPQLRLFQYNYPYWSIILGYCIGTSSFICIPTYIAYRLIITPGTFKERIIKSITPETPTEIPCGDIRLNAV

Experiments:
[1] = target: hα2A receptor (Homo sapiens, UniProt P08913); assay: Radioligand binding experiment for hα2A receptor ([3H]-raulwolscine)
[2] = target: hα2C receptor (Homo sapiens, UniProt P18825); assay: Radioligand binding experiment for hα2C receptor ([3H]-raulwolscine)
[3] = target: hα2B receptor (Homo sapiens, UniProt P18089); assay: Radioligand binding experiment for hα2B receptor ([3H]-raulwolscine)
[4] = target: h5-HT transporter (Homo sapiens, UniProt P31645); assay: Radioligand binding experiment for 5-HT transporter ([3H]paroxetine, human platelet membranes)
[5] = membranes of CHO cells expressing human α2C receptor, [3H]raulwolscine 1 nM

hα2A pIC50 ([1]; membranes of CHO cells expressing human α2A receptor, [3H]raulwolscine 1 nM) | hα2B pIC50 ([3]; membranes of CHO cells expressing human α2B receptor, [3H]raulwolscine 1 nM) | 5HTT pIC50 ([4]; human platelet membranes, [3H]paroxetine 0.5 nM) | Compound | hα2A pIC50 [1] | hα2C pIC50 [2, 5] | hα2A pIC50 ([1]; tested form: HCl (1:2)) | hα2B pIC50 ([3]; tested form: HCl (1:2)) | hα2C pIC50 ([2]; tested form: HCl (1:2)) | 5HTT pIC50 ([4]; tested form: HCl (1:2))
 |  |  | COc1cc2c(cc1OC)C1=NO[C@H](CN3CCN(C/C(C)=C/c4ccc(F)cc4)CC3)[C@H]1CO2 (relative stereo) | 7.86 | 8.54 |  |  |  | 
 |  |  | COc1ccc2c(c1)CC[C@H]1C2=NO[C@@H]1CN1CCN(Cc2ccc3ccccc3c2)CC1 (relative stereo) |  |  | 8.11 | 7.74 | 7.15 | 8.36
7.78 | 8.35 | 7.63 | COc1cc2c(cc1OC)C1=NO[C@H](CN3CCN(C/C(C)=C/c4ccsc4)CC3)[C@H]1CN2 (relative stereo) |  | 7.99 |  |  |  | 
